Assay results from patent US20050084493A1 (Amgen, published 2005).

Biological target: T1, IL-1β (Homo sapiens (Human), UniProt P01584 117-269)
T1 construct: also called IL-1 beta; IL-1b
T1 sequence: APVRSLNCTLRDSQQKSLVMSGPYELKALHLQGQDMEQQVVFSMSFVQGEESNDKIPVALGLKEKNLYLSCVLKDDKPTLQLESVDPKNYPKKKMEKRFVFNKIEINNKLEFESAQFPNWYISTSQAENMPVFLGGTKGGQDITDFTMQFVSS
Assay: ECL (Origen) competition of complex formation: antibody titrated against biotinylated sIL-1 receptor (1 nM), IL-1β (1 nM), ruthenium-tagged IL-1RacP (5 nM)

B1: chimeric MAb201 (murine MAB201 V regions on human IgG1 / human kappa constant regions) (antibody, V domains shown)
VH: QVTLKESGPGILKPSQTLSLTCSFSGFSLSTSGMGVGWIRQPSGKGLEWLAHIWWDGDESYNPSLKTRLTISKNTSRNQVFLKITTVDTVDTATYFCARNRYDPPWFVDWGQGTLVTVSS
VL: DIQMTQTTSSLSASLGDRVTISCRASQDISNYLSWYQQKPDGTVKLLIYYTSKLHSGVPSRFSGSGSGTDYFLTISNLEQEDIATYFCLQGKMLPWTFGGGTKLEIKR
modifications: partial glycosylation at the Fv region of the heavy chain (site not numbered)
Q: How did the IC50 turn out when B1 was run?
A: 556 pM
